Experimental data reported in ChEMBL document CHEMBL1135787, “Synthesis of new molecular probes for investigation of steroid biosynthesis induced by selective interaction with peripheral type benzodiazepine receptors (PBR)” (J Med Chem, 2002).

The chains behind the UniProt entries cited, without tags or fusion partners.
UniProt P16257, whole entry: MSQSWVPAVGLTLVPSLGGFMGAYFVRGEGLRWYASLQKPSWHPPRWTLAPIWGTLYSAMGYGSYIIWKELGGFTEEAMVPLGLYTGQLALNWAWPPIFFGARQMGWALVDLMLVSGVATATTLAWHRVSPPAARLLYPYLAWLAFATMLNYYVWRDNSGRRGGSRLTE

Experiments:
Translocator protein [1] = target: T1, Translocator protein (Rattus norvegicus, UniProt P16257); test: Inhibition of [3H]PK11195 binding to Peripheral type benzodiazepine receptor (PBR) in rat cortex homogenate by 50%
Translocator protein [2] = target: T1, Translocator protein; test: Inhibition of [3H]PK11195 binding to mitochondrial rat testis Peripheral type benzodiazepine receptor (PBR)
Translocator protein [3] = target: T1, Translocator protein; test: Inhibition of [3H]Ro-5-4864 binding to mitochondrial rat testis Peripheral type benzodiazepine receptor (PBR)

Work on `CNC(=O)OC1=C(c2ccccc2)Oc2ccccc2-n2cccc21` yielded a Ki (Translocator protein [1]) of 2.26 nM, a Ki (Translocator protein [2]) of 0.96 nM and a Ki (Translocator protein [3]) of 0.76 nM.
